# Test results: patent US20220241333A1, “MODULATION OF T CELL CYTOTOXICITY AND RELATED THERAPY” (Cancer Research Technology Limited, priority 2019, published 2022)
# Columns and labels:
# [1] = tested on: CD4+ Trp1 and OT-II T cells; experiment: GzmB upregulation in CD4+ Trp1 and OT-II TCR Tg T cells stimulated in vitro with antigen and cytokines; type: cell-based, mouse; settings: low antigen concentration (0.01 μM OVA peptide), comparison of CGAMMA chain cytokines
# Method: (§1) Purified CD4+ T cells (CD4 T cells beads, Miltenyi or CD4 Dyna Beads, Invitrogen) were cultured in RPMI complete medium (as above) together with DC and irradiated feeder cells (40 Gy) in 2:1:1 ratio for 72 or 96 h. Polyclonal CD4+ T cells were stimulated with anti-CD3 (2C11) and anti-CD28 (37.51) (BioXcell); OT-II cells with OVA peptide (Pepscan) and Trp-1 cells with Trp-1 peptide (Pepscan) at concentration indicated in figure legend. Mouse CD4 T cells were cultured with aCD25 (PC61) and aIL-2 (JES6-1A12, BioXcell).
# The increased expression of genes associated with CGAMMA chain cytokine signalling and the response to IL-2 in Trp1 Th-ctx is consistent with the cytokine milieu known to be induced by lymphodepletion (Williams et al., 2007) and could offer mechanistic insights into the acquisition of cytotoxic activity by tumour reactive CD4^+ T cells in vivo. We therefore evaluated the potential contribution of CGAMMA receptor cytokines to the upregulation of GzmB in tumour-reactive CD4^+ T cells. Briefly, CD4^+Trp1 and OTII TCR Tg T cells were stimulated in vitro for three days with different amounts of cognate antigen and in the presence or absence of IL-2, IL-7 or IL-15. […] Of key relevance, endogenous IL-2 was critical for GzmB upregulation in vitro as both IL-2 neutralisation and CD25 receptor blockade reduced GzmB upregulation in response to antigen (FIGS. 2C and 9A).
# [2] = tested on: human CD4+ Teff cells co-cultured with autologous Treg cells; experiment: Human Treg suppression assay (GzmB and proliferation of CD4+ Teff); type: cell-based; settings: co-culture with autologous Treg cells, even at the highest Treg:Teff ratios
# Description: For Treg suppression assays FACS-purified naïve mouse or human CD4+ T cells were co-cultured with autologous Treg cells at indicated ratios.
# IL-2 deprivation is thought to be an important mechanism utilised by Treg cells to suppress T cell-mediated immunity, primarily impacting on proliferation and survival (Sakaguchi et al., 2008). To determine whether Tregs also suppress acquisition of cytotoxic potential by CD4 cells, we activated purified human naïve CD4^+ T cells with αCD3/αCD28 and co-cultured them with different numbers of autologous Treg cells.
# human naive CD4+ T cells = experiment: GzmB expression in aCD3/aCD28-stimulated human naive CD4+ T cells; type: cell-based; settings: addition of exogenous IL-2 (100 UI/ml), sixty percent without
# Method: FACS-purified human CD4^+ T cells were cultured in RPMI complete medium with irradiated autologous feeders cells in 1:1 ratio for 96 h, stimulated with aCD3 (OKT3) and aCD28 (9.3; BioXcell). To some wells anti-CD25 antibody (Basiliximab; Novartis) was added 48 hours post aCD3/CD28 stimulation.
# We next tested whether endogenous IL-2 was required for the differentiation of human Th-ctx cells.
# [3] = tested on: polyclonal mouse CD4+ T cells; experiment: GzmB and T-bet expression in polyclonal mouse CD4+ T cells stimulated in vitro; type: cell-based; settings: low doses of αCD3, increasing amounts of exogenous IL-2
# Method: as §1
# The high levels of T-bet expression in CD4^+Trp1 and OTII Th-ctx cells lead us to evaluate its possible association with IL-2 and GzmB upregulation. […] Further validation was obtained using polyclonal mouse CD4^+ T cells stimulated in vitro with αCD3 in the presence or absence of exogenous IL-2, aCD28 and/or neutralising anti IL-2.
substance,measurement,setting,value
IL-2: cytokine (Peprotech) added to T cell cultures,Induction of GzmB,[1],most potent inducer
same,GzmB production and proliferation by CD4+ Teff cells,[2],able to revert both effects
same,Percentage of GzmB+ CD4s,human naive CD4+ T cells,ninety five
same,GzmB expression,[3],significantly augmented
